US20260285897A1, “Neurosteroids and Prodrugs Thereof” (Emory University, priority 2023, published 2026)

By UniProt entry, the sequences of proteins in these tests, tags left out. Where a name states a change or a piece, a line headed by the entry shows the natural chain unless it says otherwise. Residues count along the entry.
UniProt P28472, 26-473: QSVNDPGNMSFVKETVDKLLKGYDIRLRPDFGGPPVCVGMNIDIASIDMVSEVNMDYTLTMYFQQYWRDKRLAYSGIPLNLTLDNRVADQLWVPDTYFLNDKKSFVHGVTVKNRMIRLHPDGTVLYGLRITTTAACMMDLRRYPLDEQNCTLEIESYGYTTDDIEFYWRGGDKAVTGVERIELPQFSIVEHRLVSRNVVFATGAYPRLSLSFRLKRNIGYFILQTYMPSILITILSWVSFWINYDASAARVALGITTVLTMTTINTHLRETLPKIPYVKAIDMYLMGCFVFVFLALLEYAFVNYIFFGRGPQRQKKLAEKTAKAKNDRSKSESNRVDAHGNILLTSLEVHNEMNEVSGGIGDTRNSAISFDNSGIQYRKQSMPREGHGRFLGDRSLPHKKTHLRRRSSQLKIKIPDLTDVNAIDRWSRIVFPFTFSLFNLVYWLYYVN
UniProt P48169, 36-554: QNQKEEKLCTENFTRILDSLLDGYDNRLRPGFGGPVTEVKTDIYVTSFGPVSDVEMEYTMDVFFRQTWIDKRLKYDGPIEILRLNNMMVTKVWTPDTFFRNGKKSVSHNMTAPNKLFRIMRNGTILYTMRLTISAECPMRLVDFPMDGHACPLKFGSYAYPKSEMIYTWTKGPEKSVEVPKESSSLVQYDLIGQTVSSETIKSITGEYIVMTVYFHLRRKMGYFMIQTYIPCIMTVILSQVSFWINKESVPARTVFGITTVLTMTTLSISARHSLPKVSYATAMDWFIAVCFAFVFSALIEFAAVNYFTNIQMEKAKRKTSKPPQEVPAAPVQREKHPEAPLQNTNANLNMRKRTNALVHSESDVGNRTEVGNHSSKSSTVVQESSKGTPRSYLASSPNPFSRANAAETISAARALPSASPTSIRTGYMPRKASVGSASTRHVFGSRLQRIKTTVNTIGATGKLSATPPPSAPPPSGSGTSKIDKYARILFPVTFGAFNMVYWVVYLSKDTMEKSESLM
UniProt P14867, 28-456: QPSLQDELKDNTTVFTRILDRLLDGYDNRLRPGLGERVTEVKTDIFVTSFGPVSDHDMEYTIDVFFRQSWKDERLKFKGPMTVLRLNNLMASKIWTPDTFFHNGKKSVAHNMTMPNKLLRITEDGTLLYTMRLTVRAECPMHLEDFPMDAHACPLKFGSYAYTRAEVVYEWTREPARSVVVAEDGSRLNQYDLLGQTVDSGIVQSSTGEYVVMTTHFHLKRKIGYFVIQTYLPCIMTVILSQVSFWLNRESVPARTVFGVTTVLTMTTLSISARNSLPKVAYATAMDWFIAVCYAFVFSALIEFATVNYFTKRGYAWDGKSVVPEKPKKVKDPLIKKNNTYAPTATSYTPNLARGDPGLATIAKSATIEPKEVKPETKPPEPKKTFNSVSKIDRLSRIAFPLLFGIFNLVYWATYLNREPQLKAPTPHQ
UniProt P47870, 25-512 limits assumed: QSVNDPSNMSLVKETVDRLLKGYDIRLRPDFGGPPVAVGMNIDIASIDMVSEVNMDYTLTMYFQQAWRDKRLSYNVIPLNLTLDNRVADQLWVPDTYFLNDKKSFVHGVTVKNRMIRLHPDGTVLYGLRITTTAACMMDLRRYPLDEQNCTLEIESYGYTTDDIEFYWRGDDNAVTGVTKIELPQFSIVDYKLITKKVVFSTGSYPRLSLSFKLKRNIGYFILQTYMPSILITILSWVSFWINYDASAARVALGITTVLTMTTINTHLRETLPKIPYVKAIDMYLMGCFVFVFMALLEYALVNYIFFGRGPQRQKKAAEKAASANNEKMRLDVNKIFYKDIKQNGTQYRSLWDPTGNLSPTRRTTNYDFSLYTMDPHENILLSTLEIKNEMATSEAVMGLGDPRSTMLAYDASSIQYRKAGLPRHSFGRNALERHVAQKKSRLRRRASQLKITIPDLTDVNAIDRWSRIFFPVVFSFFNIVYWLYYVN

Experiments:
GABAA α4β3δ = GABAA α4β3δ (Homo sapiens, UniProt P28472+P48169); test: GABAA electrophysiology, PAM mode, SyncroPatch automated patch clamp; format: cell-based
Method: (§1) The SyncroPatch assay is performed at room temperature. A fast application protocol is used, in which the ligand is rapidly applied and then removed from the cell. To test for PAM mode, the agonist (GABA EC20) is applied three times as a control and to show reproducibility, followed by a minimum 2-minute pre-incubation of client compound and then re-application of agonist (GABA EC20) in the presence of client compound. Finally, a saturating concentration of agonist is applied. A steady-state voltage pulse at −80 mV is applied throughout the assay. Compounds are prepared as 10 mM DMSO stocks.
(§2) Automated patch clamp-recordings are performed using the SyncroPatch 384i. The voltage protocol generation and data collection are performed with Patch Controller 384 V2.2.1 and Data Controller V2.3.0. The PAM activity is calculated using the following equation, [(Icomp/Ireference)−1], where Icomp is the current amplitude in the presence of the compound and Ireference is the current amplitude in the presence of GABA alone. This builds an activation concentration-response curve (CRC), where <0.2 represents no PAM activity and >0.2 represents PAM activity. If a “bell-shape curve” is observed at the higher concentrations, showing a reduction in activity in comparison to previous concentrations, then to allow for a more accurate curve fit, these concentrations are removed from the graphs where necessary and noted in the results table.

GABAA α1β2γ2 = GABAA α1β2γ2 (Homo sapiens, UniProt P14867+P47870); test: as above; format: cell-based; settings: read-out: GABAA α1β2γ2 Maximum Potentiation
Method: as §1, §2

With `CC(=O)[C@H]1CC[C@H]2[C@@H]3CC[C@H]4C[C@](C)(O)CC[C@]4(C)[C@H]3CC[C@]12C` [Ganaxalone, Ganaxolone, reference compound] the Emax (GABAA α4β3δ; read-out: GABAA α4β3δ Maximum Potentiation) was 165%, the “selectivity for GABAA receptor containing the delta (δ) subunit compared to a GABAA receptor without it” value (GABAA α4β3δ; α4β3δ vs α1β2γ2, in words) was “not observed” and the Emax (GABAA α1β2γ2) was 252%.
